Reference: patent US12291501B2 (University of Florida Research Foundation, Inc., priority 2021, dated 2025)
“And” between values parts separate entries of the source, which are not always exact repeats. Identical values can stand only once.

Amino acid sequences for entries named in this document (tags omitted). Residues count along the entry.
UniProt P36544, 23-502: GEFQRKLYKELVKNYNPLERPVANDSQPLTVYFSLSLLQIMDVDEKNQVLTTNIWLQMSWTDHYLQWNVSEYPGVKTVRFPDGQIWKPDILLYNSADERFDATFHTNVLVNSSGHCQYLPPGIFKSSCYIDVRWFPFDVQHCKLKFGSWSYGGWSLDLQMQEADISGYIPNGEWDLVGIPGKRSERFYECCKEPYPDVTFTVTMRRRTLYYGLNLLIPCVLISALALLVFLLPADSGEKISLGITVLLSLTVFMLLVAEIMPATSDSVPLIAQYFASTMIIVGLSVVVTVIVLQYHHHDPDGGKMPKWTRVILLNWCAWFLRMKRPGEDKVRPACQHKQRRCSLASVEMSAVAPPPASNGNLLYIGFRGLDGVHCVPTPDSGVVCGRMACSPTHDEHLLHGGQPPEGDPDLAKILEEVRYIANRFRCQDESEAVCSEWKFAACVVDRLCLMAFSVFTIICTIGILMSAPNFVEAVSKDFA
UniProt Q9UGM1, 26-479 limits assumed: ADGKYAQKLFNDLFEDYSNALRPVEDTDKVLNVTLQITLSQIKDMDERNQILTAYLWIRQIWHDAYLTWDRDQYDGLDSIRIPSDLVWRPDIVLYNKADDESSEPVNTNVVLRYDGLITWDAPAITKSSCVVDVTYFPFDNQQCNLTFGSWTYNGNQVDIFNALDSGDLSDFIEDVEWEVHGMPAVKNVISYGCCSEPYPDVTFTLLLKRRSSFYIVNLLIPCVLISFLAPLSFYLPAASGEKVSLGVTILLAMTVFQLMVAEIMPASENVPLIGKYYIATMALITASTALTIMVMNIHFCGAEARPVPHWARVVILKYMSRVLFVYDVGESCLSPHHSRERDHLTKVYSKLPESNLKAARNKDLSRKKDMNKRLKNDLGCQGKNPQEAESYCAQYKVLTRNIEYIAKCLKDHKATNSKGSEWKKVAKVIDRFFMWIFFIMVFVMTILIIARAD

Key:
α7 nAChR [1] = biological target: T1, α7 nAChR (Homo sapiens, UniProt P36544); experiment: α7 responses to drugs co-applied with the PAM PNU-120596 (silent agonism); assay type: cell-based; conditions: drug 30 μM + 10 μM PNU-120596; normalized to 30 μM ACh + 10 μM PNU-120596
T1 construct: expressed in transfected cells; host or cells: Xenopus laevis oocytes, injected with in vitro transcribed RNA

α9 nAChR = biological target: T2, α9 nAChR (Homo sapiens, UniProt Q9UGM1); conditions: relative to ACh (Imax = 1); data taken from Papke et al. (2022); cited from earlier work
T2 construct: expressed in transfected cells; host or cells: Xenopus laevis oocytes, injected with in vitro transcribed RNA

α7 nAChR [2] = biological target: T1, α7 nAChR; conditions: relative to ACh (Imax = 1); data taken from Papke et al. (2022); cited from earlier work

CC[N+]1(CC)CCN(c2ccc(C(=O)Nc3cccc(C)n3)cc2)CC1.[I-] [Compound 2, 1,1-diethyl-4-(4-((6-methylpyridin-2-yl)carbamoyl)phenyl)piperazin-1-ium iodide]
Response co-applied with PNU-120596, normalized to ACh co-applied with PNU-120596 (α7 nAChR [1]): 0.17
α9 Imax (α9 nAChR): 1.06 ± 0.02
α7 Imax (α7 nAChR [2]): 0.42 ± 0.02 and 0.42
